# Yeast mating assay B: variants of the scFv Ab-14

The measurements come from Li et al. 2023 (doi:10.1038/s41467-023-39022-2) through the FLAb antibody collection.

Target: peptide PDVDLGDISGINAS, taken from heptad repeat 2 (HR2) of SARS-CoV-2 spike.

The variants keep the heavy chain, the linker and the frameworks of Ab-14 (scFv order VH, a 15-residue (Gly4Ser)3 linker, VL).
VH: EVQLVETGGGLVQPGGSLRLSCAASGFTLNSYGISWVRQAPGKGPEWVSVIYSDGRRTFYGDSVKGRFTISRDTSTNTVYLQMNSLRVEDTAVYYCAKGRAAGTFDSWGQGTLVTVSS
VL: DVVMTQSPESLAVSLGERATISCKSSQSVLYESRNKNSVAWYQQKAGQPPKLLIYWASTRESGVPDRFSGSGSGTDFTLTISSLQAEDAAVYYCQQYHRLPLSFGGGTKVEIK

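This is the validation round: designs drawn from the data on random variants, tested in the same kind of assay. Several design methods are mixed in this list. The scFvs were displayed on barcoded MATa yeast, the peptide on MATalpha yeast. Pairs that bind mate more often; barcode pairs of the diploids are counted by sequencing. Each replicate has its own calibration line, from reference interactions of the BCL2 family. Each pool was mated in six replicate cultures.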

Each variant is given by its three light chain CDRs, as the data file delimits them; those of the parent are KSSQSVLYESRNKNSVA, WASTRES, QQYHRLPLS. Variants here have more than six changes. The Kd shown is the geometric mean over detected replicates; a lower Kd is a better binder. A pair that was not seen in any replicate is written "nd"; this usually means weak binding, but a binder can also be missed. The range of this assay differs from that of the first round, and the authors advise against merging the two.

RISYEQFGNTYSVNNVA, QASVRAY, QMYQRLPLV: 20 nM (4 of 6 replicates).
VLQFDHDEWGMYCDNIA, DESCREP, QQYFHLPLI: 130 nM (2 of 6 replicates).
KLSQEMLYESRMINSVA, NASQREE, QQYHRLPLS: 1.8 nM (6 of 6 replicates).
MISNVMNTLTRAGNNVA, DLQEREN, QQYFRLPLS: 19 nM (6 of 6 replicates).
HMSMLTLGGLRHKNSVA, QMTTREN, QQYDHLPLS: 2.4 nM (6 of 6 replicates).
QLFSRWGQLEEISYAVA, DATTVID, QQYMHLPLT: 75 nM (6 of 6 replicates).
TIGQTLMYGMRNRSNVA, EVSQRLN, QQYDRLPLI: 50 nM (6 of 6 replicates).
KLENSNLYESRNGNSVA, NASTRYS, QQYHRLPLS: 7.9 nM (6 of 6 replicates).
QISVFELQGTGWAQNIA, QADHRTE, QQFARLPLV: 15 nM (6 of 6 replicates).
KLECSQEYESRNTNSVA, GASTRES, QQYHRLPLS: 710 pM (6 of 6 replicates).
MVSQLYNMGQFAINSVA, QASTRNE, QQYDRLPLM: 8.5 nM (6 of 6 replicates).
HLSANMWMESSQWDAVA, QGDIAMN, QDYSRLPLS: 98 nM (5 of 6 replicates).
KIDQSELEESRNKNSVA, NATVREY, QQYHRLPLS: 2.7 nM (6 of 6 replicates).
MFSQLTYTGSRMRNAVA, QASTREN, QQYHHLPLS: nd (0 of 6 replicates).
TLHGNIQYGGIMIKSIA, DNVQRAN, QQYYRLPLS: 2.7 nM (6 of 6 replicates).
KLMWSDQYWSRNKNSVA, GASTRES, QQYHRLPLS: 810 pM (6 of 6 replicates).
MISDLTMIGSRNKNSVA, DLSTRGS, QQYHRLPLS: 1.3 nM (6 of 6 replicates).
TISGLIMMPSRAKNSVA, NTSTRYQ, QQYHRLPLS: 10 nM (6 of 6 replicates).
KLQQSWMQQWRNKNSVA, NASTRLS, QQYHRLPLS: 1.6 nM (6 of 6 replicates).
MMSMGYLGGMRARNNVA, QEETRVK, QQYHRLPLI: 42 nM (6 of 6 replicates).
KVMQSKEYESRQKNSVA, NASTREL, QQYHRLPLS: 560 pM (6 of 6 replicates).
IVSQLMLWGMHAKNSIA, EAEMRIN, QQYHRLPLI: 34 nM (5 of 6 replicates).
KLVQFMNRGTHHTSNIA, DAVNRID, QQYARLPLA: 2.0 nM (6 of 6 replicates).
KIYGFPGQMTRQANSIA, DNTTREN, QQYNRLPLS: 280 nM (6 of 6 replicates).
NIQDAEGGLSSQWNSVA, STEERSD, QSYHRLPLS: 14 nM (6 of 6 replicates).
KLMPFEEYESRNKNSVA, EASTRES, QQYHRLPLS: 1.6 nM (6 of 6 replicates).
KIGHTLNTLYEKANNVA, DLVEREN, QQYHRLPLS: 2.1 nM (6 of 6 replicates).
KSSGSVLYEDRNVNSVA, NASQRLM, QQYHRLPLS: 8.6 nM (6 of 6 replicates).
KMSGSDMMLSRNWNAVA, QASTREQ, QQYHRLPLS: 1.9 nM (6 of 6 replicates).
TISMVMNHMTKNHQNVA, NQDMREN, QQYDRLPLS: 3.8 nM (6 of 6 replicates).
KLMGSQLYESRWKNAVA, EASTRES, QQYHRLPLS: 15 nM (6 of 6 replicates).
KVSQMVPYEERNKNNVA, MASTRMS, QQYHRLPLS: 790 pM (6 of 6 replicates).
KMSQAWWYESRNKWSVA, NASLREQ, QQYHRLPLS: 1.2 nM (6 of 6 replicates).
KVSQLEPYESRMKNSVA, NASTREH, QQYHRLPLS: 1.5 nM (6 of 6 replicates).
KLSQQGHYGSRNANSVA, NASQREQ, QQYHRLPLS: 1.4 nM (6 of 6 replicates).
KLQVQKLYWSRNKNSVA, EASTRES, QQYHRLPLS: 5.7 nM (6 of 6 replicates).
KISQMITYESTWHNAIA, QTSEREE, QQYHRLPLS: 8.8 nM (4 of 6 replicates).
KLDISELGESRNWNSVA, NASQREE, QQYHRLPLS: 1.9 nM (6 of 6 replicates).
HFAKQLQSLYNSKQNVA, NASTVMT, QHYNRLPLS: 4.6 nM (6 of 6 replicates).
HMSMLTLQGSRHRNSVA, QMTTREN, QQYDHLPLS: 7.3 nM (6 of 6 replicates).
KIGHAVTGTSRKGNSVA, QAETRLD, QQYHRLPLM: 5.1 nM (6 of 6 replicates).
KISQLVNFEGKNLNSVA, QMSTRES, QQYDRLPLS: 1.9 nM (6 of 6 replicates).
MISDLMLYGSRARNPIA, NASTREY, QQYHRLPLE: 8.4 nM (6 of 6 replicates).
KLNHLSFVHDREKNNVA, DLNVKCS, QQYDRLPLV: 1.9 nM (6 of 6 replicates).
KLDGSDNYESRNKNSVA, EASERES, QAYHRLPLS: 5.1 nM (6 of 6 replicates).
TIDLWTSYGNGENKAIA, DVSIKDY, QQYARLPLL: 34 nM (6 of 6 replicates).
IVSQSVMGESRNKNSVA, QTSERNY, QQYDRLPLS: 5.7 nM (6 of 6 replicates).

The authors' rule: three or more of the six replicates give a measured affinity, fewer mean a poor binder. Nonspecific signal, from three strains lacking the peptide, appeared in 4% of pairings of all light chain designs, centred on 430 nM (5% of these signals below 38 nM); values are not corrected for it.